Laboratory results as given in patent US11898187B2 (priority 2017, dated 2024).

Tested on: HiNGT, EcNGT, ApNGT and ApNGT^Q469A
Assay: GlycoSCORES screen for differentially modified (conditionally orthogonal) sequences with four NGTs
Assay type: biochemical
Settings: X−1NX+1(T/S)RC library and its X−2 and X−3 extensions, SAMDI

Row | Substance | differential sequence preference in regard to N-glycosylation: which NGT modifies the sequence
1 | AFNQT | only for ApNGT^Q469A
2 | AGNIS | for EcNGT but not for HiNGT
3 | ANVT | for HiNGT
4 | AYNLT | only for ApNGT^Q469A
5 | DFNQT | only for ApNGT^Q469A
6 | DYNLT | only for ApNGT^Q469A
7 | ENVT | for ApNGT but not for EcNGT or HiNGT
8 | FGNIS | for EcNGT but not for HiNGT
9 | FGNWS | for EcNGT but not for HiNGT
10 | FNQT | only for ApNGT^Q469A
11 | GNIS | for EcNGT but not for HiNGT
12 | IGNIS | for EcNGT but not for HiNGT
13 | INQT | only for ApNGT^Q469A
14 | INWT | only for ApNGT^Q469A
15 | LGNIS | for EcNGT but not for HiNGT
16 | LNENVT | for ApNGT but not for EcNGT or HiNGT
17 | LNHS | for EcNGT but not for HiNGT
18 | MGNIS | for EcNGT but not for HiNGT
19 | NENVT | for ApNGT but not for EcNGT or HiNGT
20 | PNIT | for HiNGT

Row | Substance | differential sequence preference in regard to N-glycosylation: which NGT modifies the sequence
21 | PNLT | for HiNGT
22 | PNVT | for HiNGT
23 | SFNQT | only for ApNGT^Q469A
24 | SYNLT | only for ApNGT^Q469A
25 | TGNIS | for EcNGT but not for HiNGT
26 | VGNIS | for EcNGT but not for HiNGT
27 | WDYNLT | only for ApNGT^Q469A
28 | WGNWT | for HiNGT
29 | WNGS | for EcNGT but not for HiNGT
30 | WNWT | only for ApNGT^Q469A
31 | WPNIT | for HiNGT
32 | WPNLT | for HiNGT
33 | WPNVT | for HiNGT
34 | WYANVT | for HiNGT
35 | YGNWS | for EcNGT but not for HiNGT
36 | YGNWT | for HiNGT
37 | YMGNIS | for EcNGT but not for HiNGT
38 | YNLT | only for ApNGT^Q469A
39 | YNRT | only for ApNGT^Q469A
